Tested on: HeLa cells
Assay: Long-term live cell imaging (DIC) with individual cell tracking and cell lineage database analysis of distinctive cellular events
[1] = HeLa, MNNG 1 μM, normalized by 200 progenitors
[2] = HeLa, non-cytotoxic dose of MNNG

methylnitronitrosoguanidine
Cytotoxicity conclusion for HeLa cells (1 μM MNNG): non-cytotoxic dose | Number of dead cells compared with control (HeLa, 1 μM MNNG): almost similar to that of control | Effect on cell growth rate (HeLa, 1 μM MNNG, FIG. 12B): did not show any effect | Prolongation of doubling time (HeLa, 1 μM MNNG, FIGS. 13A and 13B): no major prolongation | CD (cell death), % of Total DV (HeLa, MNNG 1 μM): 26.1 ± 4.2% | CF (cell fusion), % of Total DV (HeLa, MNNG 1 μM): 6.3 ± 2.3% | MD (multipolar division), % of Total DV (HeLa, MNNG 1 μM): 4.5 ± 0.2 % | Growth fold (cell number at T=900 divided by cell number at T=1) (HeLa, MNNG 1 μM, mean ± SD): 7.0 ± 0.5 | CD (cell death), Total No. [1]: 273.4 ± 49.1 | CF (cell fusion), Total No. [1]: 149 · | Total DV (total cell division), Total No. [1]: 1983 ± 199 | Cell fusion, % of total cell division events, change versus non-treated [2]: not changed | Total number of cell fusion events, change versus non-treated [2]: slightly increased | Multipolar events relative to non-treated cells (HeLa, non-cytotoxic dose of MNNG (1 μM)): about 1.7 times | Difference in % of multipolar division events compared to non-treated cells (HeLa, non-cytotoxic dose of MNNG, after normalization to total cell division): statistically significant difference | Effect on HeLa cell growth (non-cytotoxic dose of MNNG (1 μM), Table 1): slight promoting effect

— patent publication US20150219632A1, “METHOD AND APPARATUS FOR SYSTEMATIC SINGLE CELL TRACKING OF DISTINCTIVE CELLULAR EVENTS” (published 2015)
